The values that follow come from patent US9399631B2, “Polyphenol proteasome inhibitors, synthesis, and methods of use” (UNIVERSITY OF SOUTH FLORIDA, priority 2003, dated 2016).

Chains of the proteins cited; added tags and fusions are not shown. Residues count along the entry.
UniProt G1T4Q9, 1-263: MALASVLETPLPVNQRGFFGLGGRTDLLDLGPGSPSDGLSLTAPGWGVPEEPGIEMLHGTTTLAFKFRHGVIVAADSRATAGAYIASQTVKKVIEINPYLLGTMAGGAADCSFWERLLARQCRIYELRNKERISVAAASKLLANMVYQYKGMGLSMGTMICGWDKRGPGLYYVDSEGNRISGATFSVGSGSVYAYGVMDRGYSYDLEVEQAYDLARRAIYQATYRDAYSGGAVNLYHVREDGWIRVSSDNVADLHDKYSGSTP

By IC50 is commonly meant the midpoint of a concentration-inhibition curve. High values mean weaker potency, low ones greater potency.

The target of this experiment is 20S eukaryotic proteasome (Oryctolagus cuniculus, UniProt G1T4Q9). The experiment can be described thus: Inhibition of chymotrypsin-like activity of purified eukaryotic 20S proteasome (Suc-Leu-Leu-Val-Tyr-AMC). Particulars: rabbit 20S proteasome.

As for `O=C(O[C@@H]1Cc2c(O)cc(O)cc2O[C@H]1c1ccc(O)c(O)c1)c1cc(O)c(O)c(O)c1`, the IC50 turned out to be 505 nM.
